# Experimental data from US20140072613A1, “Compositions and Methods for Treating Cutaneous Scarring” (priority 2012, published 2014).
# Protein sequences, listed by entry. Tags and fused reporters are not part of them. Lines headed by an entry give the natural chain unless they say otherwise; changes in a name come on top.
# UniProt Q13464: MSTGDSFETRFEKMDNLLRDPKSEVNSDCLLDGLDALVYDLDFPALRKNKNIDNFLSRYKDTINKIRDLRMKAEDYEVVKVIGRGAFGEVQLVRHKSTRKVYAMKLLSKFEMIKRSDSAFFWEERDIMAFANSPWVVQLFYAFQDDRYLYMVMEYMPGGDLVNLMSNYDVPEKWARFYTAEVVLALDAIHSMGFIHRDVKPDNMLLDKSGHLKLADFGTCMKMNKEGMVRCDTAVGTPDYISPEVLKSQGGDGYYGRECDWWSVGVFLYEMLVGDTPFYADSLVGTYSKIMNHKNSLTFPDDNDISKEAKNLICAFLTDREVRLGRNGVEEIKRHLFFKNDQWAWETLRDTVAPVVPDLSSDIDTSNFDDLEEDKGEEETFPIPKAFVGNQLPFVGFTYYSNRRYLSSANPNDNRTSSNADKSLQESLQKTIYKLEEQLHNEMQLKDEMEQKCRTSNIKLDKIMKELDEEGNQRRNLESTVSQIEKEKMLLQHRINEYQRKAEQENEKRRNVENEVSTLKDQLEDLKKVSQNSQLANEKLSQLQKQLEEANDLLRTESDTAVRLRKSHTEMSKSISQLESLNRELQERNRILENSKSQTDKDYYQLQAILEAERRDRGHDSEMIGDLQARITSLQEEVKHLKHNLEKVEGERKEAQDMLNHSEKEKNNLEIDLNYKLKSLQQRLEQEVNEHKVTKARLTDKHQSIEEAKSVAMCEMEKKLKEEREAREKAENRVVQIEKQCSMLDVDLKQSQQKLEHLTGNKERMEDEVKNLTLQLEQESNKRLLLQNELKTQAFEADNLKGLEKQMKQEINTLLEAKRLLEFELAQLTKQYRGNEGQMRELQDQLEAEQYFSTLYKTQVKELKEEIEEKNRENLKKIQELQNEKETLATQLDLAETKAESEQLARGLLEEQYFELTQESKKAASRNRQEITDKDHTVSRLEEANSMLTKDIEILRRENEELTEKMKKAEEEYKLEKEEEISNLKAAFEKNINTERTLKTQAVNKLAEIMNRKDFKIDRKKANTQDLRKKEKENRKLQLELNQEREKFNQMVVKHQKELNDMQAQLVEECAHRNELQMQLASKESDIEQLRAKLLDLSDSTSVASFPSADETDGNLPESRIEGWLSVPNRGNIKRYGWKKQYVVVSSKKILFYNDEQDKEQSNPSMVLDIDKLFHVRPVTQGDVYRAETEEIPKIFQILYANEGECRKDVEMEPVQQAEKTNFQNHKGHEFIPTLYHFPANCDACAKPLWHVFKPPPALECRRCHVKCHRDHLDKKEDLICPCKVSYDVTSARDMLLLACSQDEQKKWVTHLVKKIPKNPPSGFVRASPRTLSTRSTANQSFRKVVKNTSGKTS
# UniProt Q9Y243: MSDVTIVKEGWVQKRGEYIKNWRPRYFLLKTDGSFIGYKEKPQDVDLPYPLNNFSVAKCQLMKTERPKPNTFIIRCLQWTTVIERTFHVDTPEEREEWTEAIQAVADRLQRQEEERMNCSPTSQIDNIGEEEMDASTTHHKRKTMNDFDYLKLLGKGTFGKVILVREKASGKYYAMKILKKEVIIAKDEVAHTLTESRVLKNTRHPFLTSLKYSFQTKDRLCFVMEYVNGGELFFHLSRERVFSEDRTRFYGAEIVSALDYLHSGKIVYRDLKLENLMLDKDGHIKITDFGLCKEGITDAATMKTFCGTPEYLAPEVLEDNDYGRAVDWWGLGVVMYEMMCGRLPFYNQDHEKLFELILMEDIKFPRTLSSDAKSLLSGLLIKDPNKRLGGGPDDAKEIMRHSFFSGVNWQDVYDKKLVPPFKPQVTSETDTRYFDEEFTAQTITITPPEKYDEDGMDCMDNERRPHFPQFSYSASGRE
# Tests used:
# Format in all cases: biochemical
# 266 human kinases [1] = biological target: 266 human kinases (Homo sapiens, UniProt P06213); conditions: IR(h), activated; 100 μM
# Method in brief: (§1)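 Read-out by scintillation counting of radiolabelled, positively charged substrate bound to negatively charged filter; activity normalised to 100% control. Phosphate transferred from radiolabelled ATP.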
# 266 human kinases [2] = biological target: T1, 266 human kinases (Homo sapiens, UniProt P21709); conditions: EphA1(h); 100 μM
# T1 sequence (P21709 26-976): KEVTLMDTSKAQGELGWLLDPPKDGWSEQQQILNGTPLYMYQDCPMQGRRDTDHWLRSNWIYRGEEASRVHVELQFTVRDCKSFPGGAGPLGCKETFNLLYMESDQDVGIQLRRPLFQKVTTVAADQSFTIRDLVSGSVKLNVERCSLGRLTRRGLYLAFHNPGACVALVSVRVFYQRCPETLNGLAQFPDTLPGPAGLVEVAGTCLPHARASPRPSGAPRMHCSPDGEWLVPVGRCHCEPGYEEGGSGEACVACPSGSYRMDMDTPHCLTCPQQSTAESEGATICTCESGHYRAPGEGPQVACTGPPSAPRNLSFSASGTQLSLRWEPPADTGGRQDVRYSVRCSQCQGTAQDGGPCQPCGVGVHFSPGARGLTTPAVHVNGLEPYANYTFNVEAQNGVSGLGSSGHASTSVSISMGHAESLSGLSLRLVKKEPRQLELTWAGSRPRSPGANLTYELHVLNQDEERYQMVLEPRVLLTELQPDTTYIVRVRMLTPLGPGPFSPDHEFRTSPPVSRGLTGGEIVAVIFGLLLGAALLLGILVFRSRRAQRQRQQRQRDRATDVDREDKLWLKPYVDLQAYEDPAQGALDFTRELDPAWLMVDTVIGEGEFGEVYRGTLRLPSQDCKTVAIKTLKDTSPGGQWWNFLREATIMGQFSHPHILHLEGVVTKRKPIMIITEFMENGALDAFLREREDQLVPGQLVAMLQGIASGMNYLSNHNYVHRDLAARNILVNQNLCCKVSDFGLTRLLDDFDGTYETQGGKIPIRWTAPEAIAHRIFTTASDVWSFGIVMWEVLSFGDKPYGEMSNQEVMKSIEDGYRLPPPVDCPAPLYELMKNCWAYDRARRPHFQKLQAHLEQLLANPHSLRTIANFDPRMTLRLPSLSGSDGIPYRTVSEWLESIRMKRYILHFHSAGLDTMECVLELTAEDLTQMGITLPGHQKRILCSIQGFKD
# Method in brief: as §1
# 266 human kinases [3] = biological target: 266 human kinases (Homo sapiens, UniProt P21802, N549H); conditions: FGFR2(N549H)(h); 100 μM
# Method in brief: as §1
# 266 human kinases [4] = biological target: 266 human kinases (Homo sapiens, UniProt Q02750); conditions: MEK1(h); 100 μM
# Method in brief: as §1
# 266 human kinases [5] = biological target: 266 human kinases (Homo sapiens, UniProt Q13464); conditions: ROCK-I(h); 100 μM
# Method in brief: as §1
# 266 human kinases [6] = biological target: T2, 266 human kinases (Homo sapiens, UniProt Q7L7X3); conditions: TAO1(h); 100 μM
# T2 sequence (Q7L7X3 1-1001): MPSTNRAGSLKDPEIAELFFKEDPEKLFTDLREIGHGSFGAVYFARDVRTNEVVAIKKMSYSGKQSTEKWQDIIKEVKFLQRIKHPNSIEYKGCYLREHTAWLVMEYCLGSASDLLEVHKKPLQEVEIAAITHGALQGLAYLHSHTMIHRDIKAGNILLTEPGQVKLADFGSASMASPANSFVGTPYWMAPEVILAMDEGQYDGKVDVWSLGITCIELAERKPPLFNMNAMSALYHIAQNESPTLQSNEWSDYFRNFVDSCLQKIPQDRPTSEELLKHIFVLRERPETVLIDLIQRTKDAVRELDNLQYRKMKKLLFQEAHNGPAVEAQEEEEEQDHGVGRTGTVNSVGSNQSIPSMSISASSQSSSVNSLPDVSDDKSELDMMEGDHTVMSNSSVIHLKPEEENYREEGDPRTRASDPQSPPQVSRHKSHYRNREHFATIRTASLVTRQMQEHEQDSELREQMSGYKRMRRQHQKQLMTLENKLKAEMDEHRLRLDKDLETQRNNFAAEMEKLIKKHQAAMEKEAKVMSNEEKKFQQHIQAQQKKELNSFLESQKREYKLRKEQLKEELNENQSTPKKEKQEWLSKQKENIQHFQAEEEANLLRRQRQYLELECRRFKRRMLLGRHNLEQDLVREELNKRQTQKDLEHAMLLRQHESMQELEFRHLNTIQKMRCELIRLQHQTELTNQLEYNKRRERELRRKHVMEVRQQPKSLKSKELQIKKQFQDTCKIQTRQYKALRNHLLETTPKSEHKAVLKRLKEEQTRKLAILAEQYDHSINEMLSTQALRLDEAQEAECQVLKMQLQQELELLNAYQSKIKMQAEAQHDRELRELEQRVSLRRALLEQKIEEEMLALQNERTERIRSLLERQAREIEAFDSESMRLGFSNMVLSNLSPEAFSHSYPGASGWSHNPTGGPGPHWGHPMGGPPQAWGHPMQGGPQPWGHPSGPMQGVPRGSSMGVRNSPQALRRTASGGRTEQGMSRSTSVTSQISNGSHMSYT
# Method in brief: as §1
# 266 human kinases [7] = biological target: T3, 266 human kinases (Homo sapiens, UniProt Q8IW41); conditions: PRAK(h); 100 μM
# T3 sequence (Q8IW41 1-473): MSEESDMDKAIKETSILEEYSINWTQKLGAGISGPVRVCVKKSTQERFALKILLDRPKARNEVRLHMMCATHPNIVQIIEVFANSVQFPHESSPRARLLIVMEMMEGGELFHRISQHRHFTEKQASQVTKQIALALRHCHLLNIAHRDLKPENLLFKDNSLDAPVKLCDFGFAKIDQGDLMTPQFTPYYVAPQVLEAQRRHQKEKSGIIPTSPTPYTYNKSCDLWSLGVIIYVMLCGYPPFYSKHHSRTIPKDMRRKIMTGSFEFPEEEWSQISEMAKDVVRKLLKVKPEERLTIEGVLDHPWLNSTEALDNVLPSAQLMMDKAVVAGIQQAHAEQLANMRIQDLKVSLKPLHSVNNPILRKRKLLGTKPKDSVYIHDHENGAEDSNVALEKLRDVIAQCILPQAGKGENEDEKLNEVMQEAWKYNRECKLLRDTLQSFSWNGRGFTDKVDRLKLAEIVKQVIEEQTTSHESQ
# Method in brief: as §1
# 266 human kinases [8] = biological target: 266 human kinases (Homo sapiens, UniProt Q9Y243); conditions: PKBγ(h); 100 μM
# Method in brief: as §1
sequence,measurement,setting,value
YARAAARQARAKALNRQLGVA (mammal) [MMI-0200],% activity,266 human kinases [1],105%
same,% activity,266 human kinases [2],136%
same,% activity,266 human kinases [3],104%
same,% activity,266 human kinases [4],116%
same,% activity,266 human kinases [5],117%
same,% activity,266 human kinases [6],105%
same,% activity,266 human kinases [7],115%
same,% activity,266 human kinases [8],103%
